Values of other authors in patent US20040014624A1, “Recylable cleaning compositions” (priority 2003, published 2004).

Conditions: known values used for calibration; cited from earlier work

CCCCc1ccccc1 [butyl benzene]
Log P of alkylbenzene retention time standards: 4.18
